Laboratory results: patent publication US20090286723A1

By UniProt entry, the sequences of proteins in these tests, tags left out. Residues count along the entry.
UniProt P32301, 22-463 limits assumed: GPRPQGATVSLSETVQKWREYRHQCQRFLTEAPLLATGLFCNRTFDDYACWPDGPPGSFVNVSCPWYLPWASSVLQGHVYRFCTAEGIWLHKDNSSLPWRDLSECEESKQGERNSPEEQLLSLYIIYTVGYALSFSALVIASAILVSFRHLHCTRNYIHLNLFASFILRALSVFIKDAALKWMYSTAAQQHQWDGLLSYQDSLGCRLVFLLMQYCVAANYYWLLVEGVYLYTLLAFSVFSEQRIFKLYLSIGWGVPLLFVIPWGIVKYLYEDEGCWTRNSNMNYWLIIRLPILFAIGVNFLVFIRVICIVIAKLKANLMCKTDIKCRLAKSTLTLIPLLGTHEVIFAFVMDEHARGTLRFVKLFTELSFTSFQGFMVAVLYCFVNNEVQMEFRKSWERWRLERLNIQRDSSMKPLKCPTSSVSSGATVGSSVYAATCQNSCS

Legend:
Test in all cases: cell-based or functional assay
calcitonin receptor = molecular target: calcitonin receptor
[1] = molecular target: GLP-1 receptor (RINm5F cell membranes) (UniProt P32301)
[2] = molecular target: GLP-1/GIP/CT (receptors read by the GLP-1/GIP/CT cyclase assay)

Row | Substance | Receptor Activation: CT cyclase (calcitonin receptor) | Receptor Activation: GLP1 cyclase [1] | Receptor Activation: GLP-1/GIP/CT cyclase [2]
1 | Exendin-4-(1-28)-bAla-bAla-Rat Amylin, amide (peptide) | 108 | 5.8 | 
2 | [Ac-alpha-MSH-(bAla)-(bAla)-Lys#] [Exendin-4-(1-28)-(bAla)-(bAla)-Lys(#Cys), amide] (peptide) |  |  | 13
